Assay results from ChEMBL document CHEMBL1139093, “1,3-diaminopropan-2-ol sulfonamides as potent and selective inhibitors of the glycine transporter type 1” (Bioorg Med Chem Lett, 2007).

Target: T1, Sodium- and chloride-dependent glycine transporter 1 (Homo sapiens, UniProt P48067)
T1 sequence (P48067 whole entry): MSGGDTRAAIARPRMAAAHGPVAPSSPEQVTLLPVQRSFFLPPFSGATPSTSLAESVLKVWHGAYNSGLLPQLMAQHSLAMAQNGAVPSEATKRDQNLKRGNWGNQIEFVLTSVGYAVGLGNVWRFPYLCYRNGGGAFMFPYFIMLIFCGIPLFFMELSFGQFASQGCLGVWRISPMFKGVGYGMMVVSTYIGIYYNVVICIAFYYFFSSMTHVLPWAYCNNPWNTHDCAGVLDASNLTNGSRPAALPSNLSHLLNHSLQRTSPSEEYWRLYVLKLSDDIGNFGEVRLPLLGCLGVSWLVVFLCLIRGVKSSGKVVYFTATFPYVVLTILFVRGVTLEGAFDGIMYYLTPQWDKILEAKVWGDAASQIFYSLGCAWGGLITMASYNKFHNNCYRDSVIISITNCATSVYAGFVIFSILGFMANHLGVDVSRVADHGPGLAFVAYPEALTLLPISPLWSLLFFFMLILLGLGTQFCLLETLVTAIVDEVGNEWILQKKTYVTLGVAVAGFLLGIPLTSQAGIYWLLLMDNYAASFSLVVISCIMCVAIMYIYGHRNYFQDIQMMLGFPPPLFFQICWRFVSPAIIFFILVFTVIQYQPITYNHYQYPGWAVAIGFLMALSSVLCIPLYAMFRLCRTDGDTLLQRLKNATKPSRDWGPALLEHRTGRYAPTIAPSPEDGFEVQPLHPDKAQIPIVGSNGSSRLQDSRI

SMILES: CCC1CCCCN1C[C@@H](O)CNS(=O)(=O)c1cccc2ccccc12 (stereo partly specified)
- IC50: 7.94 µM
